# Reference: patent US11000505B2 (priority 2010, dated 2021)
# Test system: pial artery
# Conditions: pig, in vivo
substance,measurement,value
"calcitonin-gene related polypeptide (ACDTATCVTHRLAGLLSRSGGVVKNNFVPTNVGSKAF; Calcitonin gene-related peptide 1; UniProt P06881 83-119, looked up) [reference compound]",dilation response in presence of glibenclamide,blocked the dilation
